Test system: mouse heart
Assay: Cardiac MRI for measuring cardiac function after chronic doxorubicin
Conditions: doxorubicin 5 mg/kg i.p. once a week for 5 weeks
[1] = Top2b+/+ and Top2b+/Δ mice, not in Top2bΔ/Δ

In the case of `COc1cccc2c1C(=O)c1c(O)c3c(c(O)c1C2=O)C[C@@](O)(C(=O)CO)C[C@@H]3O[C@H]1C[C@H](N)[C@H](O)[C@H](C)O1` [doxorubicin], the “Ejection fraction after treatment” value (Top2b+/+ and Top2b+/Δ mice, decreased from baseline 53%) was 43%, the “End diastolic volume (cardiac MRI)” value [1] was “markedly increased” and the “End systolic volume (cardiac MRI)” value [1] was “markedly increased”. The “Change in ejection fraction” value (Top2bΔ/Δ mice) was “no change”.

Reference: US9169509B2, “Topoisomerase 2b as a predictor of susceptibility to anthracycline-induced cardiotoxicity” (Board of Regents, The University of Texas System, priority 2013, dated 2015)
